{"sequences": {"note": "By UniProt entry, the sequences of proteins in these tests, tags left out.", "UniProt P20309, whole entry": "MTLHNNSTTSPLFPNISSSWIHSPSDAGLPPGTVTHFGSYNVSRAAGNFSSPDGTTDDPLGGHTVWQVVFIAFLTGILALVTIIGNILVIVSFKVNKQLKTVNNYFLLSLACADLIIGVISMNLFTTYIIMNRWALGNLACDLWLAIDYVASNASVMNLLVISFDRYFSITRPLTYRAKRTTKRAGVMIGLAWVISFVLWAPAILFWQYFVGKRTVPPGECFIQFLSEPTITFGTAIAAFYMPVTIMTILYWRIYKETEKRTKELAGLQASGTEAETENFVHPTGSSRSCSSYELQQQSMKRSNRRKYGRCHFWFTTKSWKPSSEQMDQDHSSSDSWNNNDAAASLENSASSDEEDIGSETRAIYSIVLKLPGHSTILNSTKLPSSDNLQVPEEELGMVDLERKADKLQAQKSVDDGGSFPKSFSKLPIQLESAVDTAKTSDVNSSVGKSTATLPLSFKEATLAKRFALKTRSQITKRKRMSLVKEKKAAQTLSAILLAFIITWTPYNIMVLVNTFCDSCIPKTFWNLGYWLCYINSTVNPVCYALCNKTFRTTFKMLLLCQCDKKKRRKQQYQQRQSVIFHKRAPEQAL", "UniProt P20309, whole entry Y149C/A239G": "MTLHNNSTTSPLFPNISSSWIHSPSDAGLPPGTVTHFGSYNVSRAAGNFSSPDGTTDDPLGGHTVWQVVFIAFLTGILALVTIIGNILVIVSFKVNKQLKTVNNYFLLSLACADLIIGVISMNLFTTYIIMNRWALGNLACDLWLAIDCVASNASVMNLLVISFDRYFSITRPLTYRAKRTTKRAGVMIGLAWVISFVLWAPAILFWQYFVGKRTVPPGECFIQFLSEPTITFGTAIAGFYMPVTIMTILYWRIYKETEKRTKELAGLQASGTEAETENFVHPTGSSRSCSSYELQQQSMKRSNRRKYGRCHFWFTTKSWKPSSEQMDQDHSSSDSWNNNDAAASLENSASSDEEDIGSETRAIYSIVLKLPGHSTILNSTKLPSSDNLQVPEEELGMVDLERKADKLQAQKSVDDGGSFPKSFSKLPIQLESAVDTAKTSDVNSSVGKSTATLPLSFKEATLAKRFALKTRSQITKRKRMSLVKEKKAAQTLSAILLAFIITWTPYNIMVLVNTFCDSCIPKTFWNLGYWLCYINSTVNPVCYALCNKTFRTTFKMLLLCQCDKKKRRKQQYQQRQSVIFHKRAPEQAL"}, "source": "paper PMC4368042", "about": "(ACS Chemical Neuroscience, 2015)", "key": {"[1]": {"target": "hM3 (native human M3 receptor) (Homo sapiens, UniProt P20309)", "assay": "cell-based"}, "hM3Dq": {"target": "hM3Dq (Homo sapiens, UniProt P20309, A239G/Y149C)", "assay": "cell-based"}}, "data": [{"smiles": "CCN1CCN(C2=Nc3ccccc3Nc3ccccc32)CC1", "note": "[Compound 22, 11-(4-Ethylpiperazin-1-yl)-5H-dibenzo[b,e][1,4]diazepine]", "values": [{"measurement": "EC50", "setting": "[1]", "result": "> 30000", "unit": "nM"}, {"measurement": "EC50", "setting": "hM3Dq", "result": 1.3, "unit": "nM"}]}]}
